Data from ChEMBL document CHEMBL1821572, “Discovery of a novel series of selective HCN1 blockers” (Bioorg Med Chem Lett, 2011).
Some of these compounds have results that are not shown, active ones among them.

Species: Homo sapiens
Assay: Selectivity for human HCN1 over human HCN4

With CCOc1ccccc1C(=O)NCC1(N2CCCCC2)CCCCC1 the Selectivity ratio was 10.
